What was measured:
[1] = LogP of fragrance raw materials; conditions: Example 2, fragrances for thermo boost performance; head range 0.00 a 3.00

Compound | logP (physchem) | logP [1]
CCCCCC(=O)OCC [ETHYL CAPROATE] | 2.83 | –
CCCC1CCCC(=O)O1 (centres unmarked) [OCTALACTONE DELTA] | – | 1.59
